Results reported in US11505592B2, “Diagnosis and therapy of multiple sclerosis” (PRINDEX S.R.L., priority 2015, dated 2022).

Tested on: 5HT2a receptor downstream signaling in MO3-13 cells
Experiment: Western blotting of proteins downstream of the 5HT2a receptor in MO3-13 cells
Type: cell-based, human
Settings: risperidone 10 uM 30 min preincubation; IgG 200 μg/ml 30 min
Method: The same membrane was also incubated with α-Tubulin antibody to show the protein loading.
Western blotting analysis of DUOX1/2 expression levels in MO3-13 cells harvested for 18 h in medium containing 0.2% FBS, preincubated with DDSK (50 uM) for 30 min in serum-free medium and then stimulated for 30 min with IgG (200 μg/ml) purified from serum of Control (IgCtr) or MS (IgMS) patients.
Western blotting analysis of P-ERK1/2 expression levels in MO3-13 cells harvested for 18 h in medium containing 0.2% FBS, preincubated with DDSK (50 uM) for 30 min in serum-free medium and then stimulated for 30 min with IgG (200 μg/ml) purified from serum of Control (Ig Ctr) or MS (IgMS) patients.
Western blotting analysis of NOX3 expression levels in MO3-13 cells harvested for 18 h in medium containing 0.2% FBS, preincubated with DDSK (50 uM) for 30 min in serum-free medium and then stimulated for30 min with IgG (200 μg/ml) purified from serum of Control (IgCtr) or MS (IgMS) patients. […]
Total cells lysates were obtained in RIPA buffer (50 mM Tris-HCl, pH 7.5, NaCl 150 mM, 1% NP40, 0.5% deoxycholate, 0.1% SDS) containing 2.5 mM Na-pyrophosphate, 1 mM β-glycerophosphate, 1 mM NaVO4, 1 mM NaF, 0.5 mM PMSF, and a cocktail of protease inhibitors (Roche, USA). […] After washing with TBST, peroxidase activity was detected with the ECL system (GE-Healthcare, UK). […]

## Cc1nc2n(c(=O)c1CCN1CCC(c3noc4cc(F)ccc34)CC1)CCCC2 [risperidone, reference compound]
  induction of P-ERK1/2 levels by IgG from MS patients in the presence of antagonist: failed to induce P-ERK1/2 levels
